{"source": "paper PMC10649572", "about": "“Arrhythmia-Associated Calmodulin E105A Mutation Alters the Binding Affinity of CaM to a Ryanodine Receptor 2 CaM-Binding Pocket” (International Journal of Molecular Sciences, 2023)", "key": {"[1]": {"system": "CaM", "conditions": "mouse RyR2 regions, ITC; ref [54]; cited from earlier work", "source_text": "Although the sequence that lies within the residues 3583-3603aa in RyR2 has been identified from multiple studies as the main and most well-established CaMBD region of RyR2 [16, 40, 41, 42], up-to-date many other linear fragments of RyR2 have also been reported as potential CaM-binding sequences but their exact role is not yet clear."}, "[2]": {"biological_target": "T1, CaM^E105A (Homo sapiens, UniProt P0DP23, E105A)", "T1 construct": "made in house; host or cells: Escherichia coli BL21-CodonPlus(DE3)", "experiment": "Isothermal titration calorimetry (ITC), peptide titrated into CaM^E105A", "format": "binding", "conditions": "for Gibbs Free Energy Change (ΔrG) / Entropic Term (−T∙ΔrS) / Stoichiometry [N] / Binding Enthalpy (ΔrH): pH 7.4, 25 °C; for Gibbs Free Energy Change (ΔrG): calculated from Kb; for Entropic Term (−T∙ΔrS): calculated from ΔrG = ΔrH − T ΔrS; for Stoichiometry [N]: moles of peptide bound per mol of protein; for Stoichiometry [N] / Binding Enthalpy (ΔrH): one-set-of-sites fit"}}, "data": [{"compound": "1941-1965aa: mouse RyR2 region 1941-1965aa, cited ITC study (FRYNEVMQALNMSAALTARKTREFR; UniProt E9Q401 1941-1965, looked up, fragment) [Peptide 1941-1965aa]", "values": [{"measurement": "affinity for CaM compared to the other two RyR2 regions", "setting": "[1]", "value": "much lower affinity"}, {"measurement": "binding to CaM", "setting": "[1]", "value": "bound to CaM"}]}, {"compound": "3580-3606aa: mouse RyR2 region 3580-3606aa, cited ITC study [Peptide 3580-3606aa]", "values": [{"measurement": "binding to CaM", "setting": "[1]", "value": "bound to CaM"}]}, {"compound": "4246-4276aa: mouse RyR2 region 4246-4276aa, cited ITC study (ALRYNVLTLVRMLSLKSLKKQMKRMKKMTVK; UniProt E9Q401 4246-4276, looked up, fragment) [Peptide 4246-4276aa]", "values": [{"measurement": "binding to CaM", "setting": "[1]", "value": "bound to CaM"}]}, {"compound": "CSCC[C@H](NC(=O)[C@H](CCC(N)=O)NC(=O)[C@H](CCCCN)NC(=O)[C@H](CCCCN)NC(=O)[C@H](CC(C)C)NC(=O)[C@H](CO)NC(=O)[C@H](CCCCN)NC(=O)[C@H](CC(C)C)NC(=O)[C@H](CO)NC(=O)[C@H](CC(C)C)NC(=O)[C@H](CCSC)NC(=O)[C@H](CCCNC(=N)N)NC(=O)[C@H](CCSC)NC(=O)[C@@H](N)CC(C)C)C(=O)N[C@@H](CCCCN)C(=O)N[C@@H](CCCCN)C(=O)N[C@H](C(=O)O)C(C)C", "note": "[Peptide F]", "values": [{"measurement": "Gibbs Free Energy Change (ΔrG)", "setting": "[2]; apo-buffer (10 mM EDTA)", "value": "-26.3 ± 0.3", "unit": "kJ/mol"}, {"measurement": "Entropic Term (−T∙ΔrS)", "setting": "[2]; apo-buffer (10 mM EDTA)", "value": "-31.6 ± 0.6", "unit": "kJ/mol"}, {"measurement": "Stoichiometry [N]", "setting": "[2]; apo-buffer (10 mM EDTA)", "value": "0.89 ± 0.01"}, {"measurement": "Binding Enthalpy (ΔrH)", "setting": "[2]; apo-buffer (10 mM EDTA)", "value": "5.2 ± 0.5", "unit": "kJ/mol"}, {"measurement": "Kd of CaM^E105A, times higher (binding times weaker) compared to CaM^WT", "setting": "[2]; apo-buffer, 25 °C, ratio of Kd CaM^E105A / CaM^WT", "value": "~ 2 times"}, {"measurement": "effect of E105A mutation on the binding of CaM to the peptide", "setting": "[2]; compared to CaM^WT, holo-buffer, 25 °C", "value": "significantly lower affinity"}, {"measurement": "Gibbs Free Energy Change (ΔrG)", "setting": "[2]; holo-buffer (10 mM CaCl2)", "value": "-31.9 ± 0.3", "unit": "kJ/mol"}, {"measurement": "Entropic Term (−T∙ΔrS)", "setting": "[2]; holo-buffer (10 mM CaCl2)", "value": "-39.7 ± 0.5", "unit": "kJ/mol"}, {"measurement": "Stoichiometry [N]", "setting": "[2]; holo-buffer (10 mM CaCl2)", "value": "0.94 ± 0.01"}, {"measurement": "Binding Enthalpy (ΔrH)", "setting": "[2]; holo-buffer (10 mM CaCl2)", "value": "7.8 ± 0.4", "unit": "kJ/mol"}, {"measurement": "ITC binding signature", "setting": "[2]; holo-buffer, 25 °C", "value": "endothermic"}, {"measurement": "complex formed (stoichiometry)", "setting": "[2]; holo-buffer, 25 °C", "value": "1:1 complex"}, {"measurement": "Kd of CaM^E105A, times higher compared to CaM^WT", "setting": "[2]; holo-buffer, 25 °C, ratio of Kd CaM^E105A / CaM^WT", "value": "~ 4 times"}]}]}
